Consider two molecules from PMC11044049 (The Journal of Biological Chemistry, 2024).

Common to all, as to details: both partners purified
The target in experiment [1] is T1, γ-K141A (E. coli, UniProt P06710 1-373, K141A).
T1 construct: γ subunit of the E. coli clamp loader with K141A; insert bought from Twist Bioscience; the range 1-373 is stated for the γ subunit in general; The limits 1-373 are not repeated for the mutant itself; source: E. coli BLR21(DE3), purified (Nickel NTA agarose, Prescission Protease, HisTrap); not shown: His6, N-terminal, cleaved
T1 sequence (looked up): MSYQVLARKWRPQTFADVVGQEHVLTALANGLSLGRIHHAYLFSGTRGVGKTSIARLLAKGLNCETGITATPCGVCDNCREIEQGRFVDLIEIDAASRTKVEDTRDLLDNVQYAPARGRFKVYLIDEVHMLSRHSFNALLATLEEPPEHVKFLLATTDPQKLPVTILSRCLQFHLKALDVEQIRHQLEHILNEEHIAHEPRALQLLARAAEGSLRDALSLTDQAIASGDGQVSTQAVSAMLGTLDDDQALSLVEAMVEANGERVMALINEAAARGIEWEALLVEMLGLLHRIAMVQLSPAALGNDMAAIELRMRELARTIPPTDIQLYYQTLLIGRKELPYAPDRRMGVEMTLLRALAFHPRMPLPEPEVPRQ
Nature of the experiment: reconstitution and co-elution on anion exchange (HiTrap Q); purified γ (WT or K141A), δ and δ′ (WT or K130A) combined 2.5:1:1, dialysed into Buffer Q-A (50 mM Tris pH 7.5, 50 mM NaCl, 10% glycerol, 2 mM DTT) overnight at 4 °C, eluted from a HiTrap Q column with a NaCl gradient; fractions with the intact complex pooled.

In experiment [2] the target is T2, γ subunit of the E. coli clamp loader (residues 1-373) (E. coli, UniProt P06710 1-373).
T2 construct: γ subunit of the E. coli clamp loader, truncated form, residues 1-373; Stands for the single γ subunits within the γ-complex; also called γ protein; B, C and D subunits; source: E. coli BLR21(DE3), purified (HisTrap, Prescission Protease, HisTrap flowthrough); not shown: His6, N-terminal, cleaved
T2 sequence (looked up): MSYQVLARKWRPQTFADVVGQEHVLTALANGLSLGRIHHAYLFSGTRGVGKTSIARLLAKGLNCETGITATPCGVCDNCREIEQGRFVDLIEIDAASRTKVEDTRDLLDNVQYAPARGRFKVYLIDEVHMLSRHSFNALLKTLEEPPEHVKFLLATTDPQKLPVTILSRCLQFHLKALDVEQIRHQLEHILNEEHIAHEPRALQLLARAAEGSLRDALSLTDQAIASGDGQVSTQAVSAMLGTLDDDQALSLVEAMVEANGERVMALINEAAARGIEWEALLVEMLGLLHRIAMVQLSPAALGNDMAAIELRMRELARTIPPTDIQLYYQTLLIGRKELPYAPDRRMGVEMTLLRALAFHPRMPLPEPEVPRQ
The experiment is described as above.

The target of experiment [3] is T2, γ subunit of the E. coli clamp loader …. Nature of the experiment: cryo-EM structure; 2.5 μM clamp loader, 2.2 μM sliding clamp, 7 μM DNA/DNA p/t substrate, 1 mM ADP·BeFx; Open-DNAp/t, Altered-Collar, Closed-DNA1 and Closed-DNA2 states.

B1: δ′-K130A (natural protein, E. coli)
chain: MRWYPWLRPDFEKLVASYQAGRGHHALLIQALPGMGDDALIYALSRYLLCQQPQGHKSCGHCRGCQLMQAGTHPDYYTLAPEKGKNTLGVDAVREVTEKLNEHARLGGAKVVWVTDAALLTDAAANALLATLEEPPAETWFFLATREPERLLATLRSRCRLHYLAPPPEQYAVTWLSREVTMSQDALLAALRLSAGSPGAALALFQGDNWQARETLCQALAYSVPSGDWYSLLAALNHEQAPARLHWLATLLMDALKRHHGAAQVTNVDVPGLVAELANHLSPSRLQAILGDVCHIREQLMSVTGINRELLITDLLLRIEHYLQPGVVLPVPHL
notes: δ′ subunit of the E. coli clamp loader with K130A; insert bought from Twist Bioscience; source: E. coli BLR21(DE3), purified (Nickel NTA agarose, Prescission Protease, HisTrap); not shown: His6, N-terminal, cleaved
For the molecule B1, the binding result in experiment [1] and in experiment [2] was “binds” in each case.

B2: E. coli sliding clamp (ß-clamp) (natural protein)
chain: MKFTVEREHLLKPLQQVSGPLGGRPTLPILGNLLLQVADGTLSLTGTDLEMEMVARVALVQPHEPGATTVPARKFFDICRGLPEGAEIAVQLEGERMLVRSGRSRFSLSTLPAADFPNLDDWQSEVEFTLPQATMKRLIEATQFSMAHQDVRYYLNGMLFETEGEELRTVATDGHRLAVCSMPIGQSLPSHSVIVPRKGVIELMRMLDGGDNPLRVQIGSNNIRAHVGDFIFTSKLVDGRFPDYRRVLPKNPDKHLEAGCDLLKQAFARAAILSNEKFRGVRLYVSENQLKITANNPEQEEAEEILDVTYSGAEMEIGFNVSYVLDVLNALKCENVRMMLTDSVSSVQIEDAASQSAAYVVMPMRL
notes: β sliding clamp of E. coli DNA polymerase III; Homodimer, each subunit with three domains; also called β-clamp; source: E. coli BLR21(DE3), purified (HisTrap, Prescission Protease, HiTrap Q); not shown: His6, N-terminal, cleaved
For the molecule B2, the binding result in experiment [3] was “binds”.
